HCMV NEC inh: inhibitors of HCMV UL50-UL53 interaction, biochemical, HTRF. normalized percent inhibition. inhibition, % (concentration not given with the values). 190,000 compounds, 0.15% hits. AID 1918969, 2023; in the data active means inhibition above about 27%, passing the limit was not always enough
GIV Gai3 FP: inhibitors of GIV GBA-motif binding to rat Galpha-i3; P08753; Galpha-i3/FITC-GIV peptide fluorescence polarization, 90 min; hits give low values; scaled: aluminum fluoride 0%, vehicle 100%; percent of control (FP), % (test concentration not listed); 0.42% of 210,000 active; AID 1224905;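 active = replicate mean at 85% of control or lower, very high polarization wells dropped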;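 also: wells of about 15 µL received 100 nL stock; the first replicate is given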
GIV Gai FP conf: inhibitors of GIV peptide binding to Galpha-i3, confirmation, biochemical, fluorescence polarization, FITC-GIV peptide, rat Galphai3. AID 1259350, 2017. shares compounds with GIV Gai3 FP. fluorescence polarization, mP at 100 µM. hits give low values. 580 compounds, 38% hits;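 active means inhibition score of 15 or more, meaning 100 minus mean polarization as percent of control over three replicates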;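 further: lower mP means peptide displaced from Galphai3 so more inhibition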
GIV-Gai AS conf: inhibitors of GIV binding to Galpha-i3, confirmation, orthogonal assay for GIV-Galpha-i inhibitor project, biochemical, AlphaScreen, His-GIV, GST-Galphai3; 580 compounds, 39% hits; purified proteins, 90 min; hits give low values; shares compounds with GIV Gai3 FP; AlphaScreen counts at 100 µM;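 active means inhibition score at or above a set limit, where the score is 100 minus the three-replicate mean percent of control signal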
* = called active by the depositor. Most compounds without a hit are left out; they make up all but 0.43% or so of the library.

What do the screens show for `NC(Cc1cc(O)c(O)cc1O)C(=O)O` (stereo not given)?
HCMV NEC inh: 76*; GIV Gai3 FP: 71*; GIV Gai FP conf: 34*; GIV-Gai AS conf: 2389*

Results for CCOC(=O)C1(C#N)C(c2cccc([N+](=O)[O-])c2)C(C(N)=O)N2C=C(C(N)=O)C=CC21 (stereo not given) ?
GIV Gai3 FP: 112

What do the screens show for `COc1cc(C(c2c(C)[nH]n(-c3ccccc3)c2=O)c2c(C)[nH]n(-c3ccccc3)c2=O)cc(OC)c1OC`?
GIV Gai3 FP: 79*; GIV Gai FP conf: 53*; GIV-Gai AS conf: 19198*

What do the screens show for `COc1cc(CN2CCN(C(=O)Cc3ccccc3)CC2)cc(OC)c1OC`?
HCMV NEC inh: -8; GIV Gai3 FP: 98

How did CN(N=O)c1ccc(O)c(O)c1 do in these assays?
HCMV NEC inh: 102*; GIV Gai3 FP: 37*; GIV Gai FP conf: 42*; GIV-Gai AS conf: 3178*

How did C=CCN1C(=O)/C(=C/c2ccco2)C(=O)NC1=S do in these assays?
HCMV NEC inh: -2; GIV Gai3 FP: 46*; GIV Gai FP conf: 52*; GIV-Gai AS conf: 936*

Results for O=C1NC(=O)N(Cc2ccco2)C(=O)/C1=C\c1ccco1 ?
HCMV NEC inh: 14; GIV Gai3 FP: 61*; GIV Gai FP conf: 46*; GIV-Gai AS conf: 1412*

What do the screens show for `C=CCN1C(=O)NC(=O)/C(=C/c2ccco2)C1=O`?
GIV Gai3 FP: 119

What do the screens show for `COc1ccccc1N1C(=O)NC(=O)/C(=C\C=C\c2ccco2)C1=O`?
GIV Gai3 FP: 104

What do the screens show for `COC(=O)C1=C(N)Oc2c(c(=O)oc3ccccc23)C12C(=O)Nc1ccccc12` (stereo not given)?
GIV Gai3 FP: 106

Results for Fc1cccc(C2NCCc3[nH]cnc32)c1F (stereo not given) ?
HCMV NEC inh: -18; GIV Gai3 FP: 103

What do the screens show for `O=C(O)C1C2CCC(C2)C1C(=O)N1CC2CC(C1)c1cccc(=O)n1C2` (stereo not given)?
GIV Gai3 FP: 113

What do the screens show for `COc1cc(C=C2C(=O)NC(=O)NC2=O)cc(Cl)c1OCCOc1ccccc1`?
HCMV NEC inh: 13; GIV Gai3 FP: 104

Results for CCOc1cc(C=C2C(=O)NC(=O)NC2=O)cc(Cl)c1O ?
HCMV NEC inh: 11; GIV Gai3 FP: 72*; GIV Gai FP conf: 62; GIV-Gai AS conf: 5092*

How did NC(N)=N/N=C/c1ccc2c(c1)OCO2 do in these assays?
HCMV NEC inh: -45; GIV Gai3 FP: 106

Structures shown so far containing a COOH group:
What do the screens show for `NC(Cc1cc(O)c(O)cc1O)C(=O)O` (stereo not given)?
HCMV NEC inh: 76*; GIV Gai3 FP: 71*; GIV Gai FP conf: 34*; GIV-Gai AS conf: 2389*

What do the screens show for `O=C(O)C1C2CCC(C2)C1C(=O)N1CC2CC(C1)c1cccc(=O)n1C2` (stereo not given)?
GIV Gai3 FP: 113
